Some results for these compounds are left out of this collection, so the calls shown say nothing about other tests.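 These data come from cells grown in 96-well plates and exposed to compound for 48 hours at five concentrations. The concentration for 50% growth inhibition is given as GI50. TGI denotes the concentration required for complete inhibition of growth.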
What was measured:
Assay in all cases: NCI anticancer screen, dose series, 48 h
[1] = system: MDA-MB-435
[2] = system: UACC-62 melanoma
[3] = system: SF-295 CNS
[4] = system: HL-60(TB) leukemia
[5] = system: SNB-75 CNS
[6] = system: CAKI-1 renal
[7] = system: OVCAR-8 ovarian
[8] = system: SK-MEL-28 melanoma
[9] = system: OVCAR-4 ovarian
[10] = system: SNB-19 CNS
[11] = system: IGROV1 ovarian
[12] = system: HCT-15 colon
[13] = system: SR leukemia
[14] = system: 786-0 renal
[15] = system: MDA-N
[16] = system: CCRF-CEM leukemia
[17] = system: SF-268 CNS
[18] = system: NCI-H522 lung
[19] = system: OVCAR-3 ovarian
[20] = system: RXF 393 renal
[21] = system: ACHN renal
[22] = system: T-47D breast
[23] = system: PC-3 prostate
[24] = system: HCT-116 colon
[25] = system: HOP-92 NSCLC
[26] = system: TK-10 renal
[27] = system: SK-MEL-2 melanoma
[28] = system: SK-OV-3 ovarian
[29] = system: MALME-3M melanoma
[30] = system: SF-539 CNS
[31] = system: NCI-H23 lung
[32] = system: HS 578T breast
[33] = system: UACC-257 melanoma
[34] = system: COLO 205 colon
[35] = system: A549 NSCLC
[36] = system: MCF7 breast
[37] = system: MDA-MB-231 breast
[38] = system: DU-145 prostate
[39] = system: SK-MEL-5 melanoma
[40] = system: BT-549 breast
[41] = system: EKVX NSCLC
[42] = system: OVCAR-5 ovarian
[43] = system: MOLT-4 leukemia
[44] = system: NCI/ADR-RES ovarian
[45] = system: NCI-H322M lung
[46] = system: A498 renal
[47] = system: HOP-62 NSCLC
[48] = system: UO-31 renal
[49] = system: RPMI-8226 leukemia
[50] = system: HT29 colon
[51] = system: LOX IMVI melanoma
[52] = system: SN12C renal
[53] = system: K-562 leukemia
[54] = system: M14 melanoma
[55] = system: U251 CNS
[56] = system: NCI-H226 lung
[57] = system: HCC-2998 colon
[58] = system: SW-620 colon
[59] = system: NCI-H460 lung
[60] = system: KM12 colon

Molecule `CC#CC(O)(C#CC)C(=O)OC1CN2CCC1CC2` (stereo not given) has a GI50 [1] of over 100 µM, a TGI [1] of over 100 µM and a GI50 [2] of over 100 µM. It also gave a TGI [2] of over 100 µM, a GI50 [3] of over 100 µM and a TGI [3] of over 100 µM. The GI50 [4] was over 100 µM, the TGI [4] was over 100 µM and the GI50 [5] was over 100 µM. For the same molecule, the TGI [5] was over 100 µM, the GI50 [6] was over 100 µM and the TGI [6] was over 100 µM. For the same molecule, the GI50 [7] was over 100 µM, the TGI [7] was over 100 µM and the GI50 [8] was over 100 µM. The TGI [8] was over 100 µM, the GI50 [9] was over 100 µM and the TGI [9] was over 100 µM. It also gave a GI50 [10] of over 100 µM, a TGI [10] of over 100 µM and a GI50 [11] of over 100 µM. It also gave a TGI [11] of over 100 µM, a GI50 [12] of over 100 µM and a TGI [12] of over 100 µM. It also gave a GI50 [13] of over 100 µM, a TGI [13] of over 100 µM and a GI50 [14] of over 100 µM. It also gave a TGI [14] of over 100 µM, a GI50 [15] of over 100 µM and a TGI [15] of over 100 µM. For the same molecule, the GI50 [16] was over 100 µM, the TGI [16] was over 100 µM and the GI50 [17] was over 100 µM. For the same molecule, the TGI [17] was over 100 µM, the GI50 [18] was over 100 µM and the TGI [18] was over 100 µM. The GI50 [19] was over 100 µM, the TGI [19] was over 100 µM and the GI50 [20] was over 100 µM. The TGI [20] was over 100 µM, the GI50 [21] was over 100 µM and the TGI [21] was over 100 µM. The GI50 [22] was over 100 µM, the TGI [22] was over 100 µM and the GI50 [23] was over 100 µM. It also gave a TGI [23] of over 100 µM, a GI50 [24] of over 100 µM and a TGI [24] of over 100 µM. For the same molecule, the GI50 [25] was over 100 µM, the TGI [25] was over 100 µM and the GI50 [26] was over 100 µM. It also gave a TGI [26] of over 100 µM, a GI50 [27] of over 100 µM and a TGI [27] of over 100 µM. It also gave a GI50 [28] of over 100 µM, a TGI [28] of over 100 µM and a GI50 [29] of over 100 µM. The TGI [29] was over 100 µM, the GI50 [30] was over 100 µM and the TGI [30] was over 100 µM. It also gave a GI50 [31] of over 100 µM, a TGI [31] of over 100 µM and a GI50 [32] of over 100 µM. It also gave a TGI [32] of over 100 µM, a GI50 [33] of over 100 µM and a TGI [33] of over 100 µM. It also gave a GI50 [34] of over 100 µM, a TGI [34] of over 100 µM and a GI50 [35] of over 100 µM. The TGI [35] was over 100 µM, the GI50 [36] was over 100 µM and the TGI [36] was over 100 µM. The GI50 [37] was over 100 µM, the TGI [37] was over 100 µM and the GI50 [38] was over 100 µM. The TGI [38] was over 100 µM, the GI50 [39] was over 100 µM and the TGI [39] was over 100 µM. The GI50 [40] was over 100 µM, the TGI [40] was over 100 µM and the GI50 [41] was over 100 µM. It also gave a TGI [41] of over 100 µM, a GI50 [42] of over 100 µM and a TGI [42] of over 100 µM. The GI50 [43] was over 100 µM, the TGI [43] was over 100 µM and the GI50 [44] was over 100 µM. The TGI [44] was over 100 µM, the GI50 [45] was over 100 µM and the TGI [45] was over 100 µM. The GI50 [46] was over 100 µM, the TGI [46] was over 100 µM and the GI50 [47] was over 100 µM. The TGI [47] was over 100 µM, the GI50 [48] was over 100 µM and the TGI [48] was over 100 µM. The GI50 [49] was over 100 µM, the TGI [49] was over 100 µM and the GI50 [50] was over 100 µM. It also gave a TGI [50] of over 100 µM, a GI50 [51] of over 100 µM and a TGI [51] of over 100 µM. The GI50 [52] was over 100 µM, the TGI [52] was over 100 µM and the GI50 [53] was over 100 µM. For the same molecule, the TGI [53] was over 100 µM, the GI50 [54] was over 100 µM and the TGI [54] was over 100 µM. It also gave a GI50 [55] of over 100 µM, a TGI [55] of over 100 µM and a GI50 [56] of over 100 µM. The TGI [56] was over 100 µM.

`O=C(OC1CCN(Cc2ccccc2)C1)C(O)(c1ccccc1)c1ccccc1` (stereo not given) showed a TGI [1] of over 100 µM, a TGI [2] of over 100 µM and a TGI [3] of over 100 µM. For the same molecule, the TGI [4] was over 100 µM, the TGI [5] was over 100 µM and the TGI [6] was over 100 µM. The TGI [7] was over 100 µM, the TGI [8] was over 100 µM and the TGI [9] was over 100 µM. For the same molecule, the TGI [10] was over 100 µM, the TGI [11] was over 100 µM and the TGI [12] was over 100 µM. It also gave a TGI [13] of over 100 µM, a TGI [14] of over 100 µM and a TGI [57] of over 100 µM. The TGI [15] was over 100 µM, the TGI [16] was over 100 µM and the TGI [17] was over 100 µM. For the same molecule, the TGI [18] was over 100 µM, the TGI [19] was over 100 µM and the TGI [20] was over 100 µM. The TGI [21] was over 100 µM, the TGI [58] was over 100 µM and the TGI [22] was over 100 µM. The TGI [23] was over 100 µM, the TGI [24] was over 100 µM and the TGI [26] was over 100 µM. The TGI [27] was over 100 µM, the TGI [28] was over 100 µM and the TGI [29] was over 100 µM. It also gave a TGI [59] of over 100 µM, a TGI [30] of over 100 µM and a TGI [31] of over 100 µM. It also gave a TGI [32] of over 100 µM, a TGI [60] of over 100 µM and a TGI [33] of over 100 µM. It also gave a TGI [34] of over 100 µM, a TGI [35] of over 100 µM and a TGI [36] of over 100 µM. It also gave a TGI [37] of over 100 µM, a TGI [38] of over 100 µM and a TGI [39] of over 100 µM. For the same molecule, the TGI [41] was over 100 µM, the TGI [42] was over 100 µM and the TGI [43] was over 100 µM. For the same molecule, the TGI [44] was over 100 µM, the TGI [45] was over 100 µM and the TGI [46] was over 100 µM. For the same molecule, the TGI [47] was over 100 µM, the TGI [48] was over 100 µM and the TGI [49] was over 100 µM. It also gave a TGI [50] of over 100 µM, a TGI [51] of over 100 µM and a TGI [52] of over 100 µM. The TGI [53] was over 100 µM, the TGI [54] was over 100 µM and the TGI [55] was over 100 µM. For the same molecule, the TGI [56] was over 100 µM.

Source: PubChem BioAssay (NCI)
